Here are results for one molecule from BindingDB's records for PubMed 1836757 (University of Heidelberg, 1991).

Amino acid sequences for entries named in this document (tags omitted). A change or cut given only in a name is not applied to a line headed by its entry.
UniProt P08908, whole entry: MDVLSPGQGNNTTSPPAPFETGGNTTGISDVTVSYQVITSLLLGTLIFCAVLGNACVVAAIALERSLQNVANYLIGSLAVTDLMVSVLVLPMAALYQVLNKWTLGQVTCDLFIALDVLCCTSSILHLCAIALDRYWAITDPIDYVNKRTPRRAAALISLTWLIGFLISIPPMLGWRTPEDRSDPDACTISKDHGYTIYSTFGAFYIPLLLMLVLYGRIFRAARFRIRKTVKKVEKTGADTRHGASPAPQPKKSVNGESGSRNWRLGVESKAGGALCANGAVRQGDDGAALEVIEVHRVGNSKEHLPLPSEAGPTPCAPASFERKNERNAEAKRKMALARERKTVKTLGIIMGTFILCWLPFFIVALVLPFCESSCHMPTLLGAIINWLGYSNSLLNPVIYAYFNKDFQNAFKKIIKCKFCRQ
UniProt P28221: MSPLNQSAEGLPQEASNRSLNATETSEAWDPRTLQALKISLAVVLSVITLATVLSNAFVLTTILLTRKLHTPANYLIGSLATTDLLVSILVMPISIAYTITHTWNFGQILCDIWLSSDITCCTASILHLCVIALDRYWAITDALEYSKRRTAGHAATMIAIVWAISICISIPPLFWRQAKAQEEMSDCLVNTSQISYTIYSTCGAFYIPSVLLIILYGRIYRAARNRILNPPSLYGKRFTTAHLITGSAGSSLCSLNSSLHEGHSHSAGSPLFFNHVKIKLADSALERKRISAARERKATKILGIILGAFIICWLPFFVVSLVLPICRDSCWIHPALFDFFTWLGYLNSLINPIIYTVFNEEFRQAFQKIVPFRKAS
UniProt P28222, whole entry: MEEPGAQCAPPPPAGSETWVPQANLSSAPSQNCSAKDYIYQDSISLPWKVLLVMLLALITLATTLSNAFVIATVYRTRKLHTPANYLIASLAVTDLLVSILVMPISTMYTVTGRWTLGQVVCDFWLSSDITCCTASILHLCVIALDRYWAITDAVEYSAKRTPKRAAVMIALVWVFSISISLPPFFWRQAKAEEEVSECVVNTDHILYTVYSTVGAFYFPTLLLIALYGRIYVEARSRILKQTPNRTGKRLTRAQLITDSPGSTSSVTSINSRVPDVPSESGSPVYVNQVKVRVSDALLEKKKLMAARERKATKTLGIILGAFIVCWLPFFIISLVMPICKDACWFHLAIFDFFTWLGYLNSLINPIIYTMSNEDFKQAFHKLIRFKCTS
UniProt P28335: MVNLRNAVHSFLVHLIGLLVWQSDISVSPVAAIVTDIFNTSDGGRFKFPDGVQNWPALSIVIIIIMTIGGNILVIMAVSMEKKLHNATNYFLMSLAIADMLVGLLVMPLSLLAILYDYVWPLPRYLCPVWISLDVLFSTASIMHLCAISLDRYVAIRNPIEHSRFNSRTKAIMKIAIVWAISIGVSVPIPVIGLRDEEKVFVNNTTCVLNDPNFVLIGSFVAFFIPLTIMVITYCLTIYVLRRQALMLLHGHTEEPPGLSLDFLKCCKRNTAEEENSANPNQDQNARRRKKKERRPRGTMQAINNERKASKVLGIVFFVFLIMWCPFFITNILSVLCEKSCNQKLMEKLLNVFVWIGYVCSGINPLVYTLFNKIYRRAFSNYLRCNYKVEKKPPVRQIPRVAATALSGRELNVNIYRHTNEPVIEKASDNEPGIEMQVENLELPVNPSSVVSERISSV

The assay concerns the target 5-hydroxytryptamine receptor 1A/1B/1D/2C (Homo sapiens, UniProt P08908+P28221+P28222+P28335).

One may read the Ki as the dissociation constant of the complex between target and ligand, obtained from inhibition or displacement. High values mean weaker binding, low ones tighter binding. `COC(=O)[C@@H]1[C@H]2C[C@H]3c4[nH]c5ccccc5c4CCN3C[C@@H]2CC[C@@H]1O` [yohimbic acid methyl ester] displayed a Ki of 4.5 µM.
